From ChEMBL document CHEMBL3400096, “6,7-Dihydrobenzo[f]benzo[4,5]imidazo[1,2-d][1,4]oxazepine derivatives as selective inhibitors of PI3Kα” (Bioorg Med Chem, 2015)

Protein sequences, listed by entry. Tags and fused reporters are not part of them. Lines headed by an entry give the natural chain unless they say otherwise; changes in a name come on top.
UniProt P48736: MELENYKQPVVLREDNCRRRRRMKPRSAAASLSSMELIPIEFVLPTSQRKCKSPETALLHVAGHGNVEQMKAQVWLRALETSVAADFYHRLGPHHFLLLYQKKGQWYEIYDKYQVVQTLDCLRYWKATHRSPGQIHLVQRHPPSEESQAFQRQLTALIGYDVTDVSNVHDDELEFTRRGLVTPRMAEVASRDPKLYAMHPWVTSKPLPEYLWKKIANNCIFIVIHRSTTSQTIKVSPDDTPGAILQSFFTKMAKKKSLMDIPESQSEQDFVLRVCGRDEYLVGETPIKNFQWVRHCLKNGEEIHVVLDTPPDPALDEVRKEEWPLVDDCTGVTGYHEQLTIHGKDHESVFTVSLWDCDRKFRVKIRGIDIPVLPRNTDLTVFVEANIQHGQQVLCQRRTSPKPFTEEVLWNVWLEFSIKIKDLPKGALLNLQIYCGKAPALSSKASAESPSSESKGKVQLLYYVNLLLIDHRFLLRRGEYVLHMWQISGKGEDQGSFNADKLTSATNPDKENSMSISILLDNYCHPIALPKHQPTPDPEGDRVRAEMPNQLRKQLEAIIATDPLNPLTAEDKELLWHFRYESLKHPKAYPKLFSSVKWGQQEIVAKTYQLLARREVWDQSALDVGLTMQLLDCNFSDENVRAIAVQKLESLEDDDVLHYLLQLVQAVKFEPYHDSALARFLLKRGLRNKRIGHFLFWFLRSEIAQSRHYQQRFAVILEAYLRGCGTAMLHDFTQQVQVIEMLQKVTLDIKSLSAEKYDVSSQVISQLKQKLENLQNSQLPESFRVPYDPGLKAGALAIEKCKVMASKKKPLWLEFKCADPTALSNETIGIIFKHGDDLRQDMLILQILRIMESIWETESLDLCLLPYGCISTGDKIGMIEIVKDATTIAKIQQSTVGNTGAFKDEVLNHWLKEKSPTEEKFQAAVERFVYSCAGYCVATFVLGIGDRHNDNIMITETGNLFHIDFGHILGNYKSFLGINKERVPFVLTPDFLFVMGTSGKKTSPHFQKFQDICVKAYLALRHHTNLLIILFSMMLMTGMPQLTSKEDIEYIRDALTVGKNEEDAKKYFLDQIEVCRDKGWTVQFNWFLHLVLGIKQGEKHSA
UniProt P42338: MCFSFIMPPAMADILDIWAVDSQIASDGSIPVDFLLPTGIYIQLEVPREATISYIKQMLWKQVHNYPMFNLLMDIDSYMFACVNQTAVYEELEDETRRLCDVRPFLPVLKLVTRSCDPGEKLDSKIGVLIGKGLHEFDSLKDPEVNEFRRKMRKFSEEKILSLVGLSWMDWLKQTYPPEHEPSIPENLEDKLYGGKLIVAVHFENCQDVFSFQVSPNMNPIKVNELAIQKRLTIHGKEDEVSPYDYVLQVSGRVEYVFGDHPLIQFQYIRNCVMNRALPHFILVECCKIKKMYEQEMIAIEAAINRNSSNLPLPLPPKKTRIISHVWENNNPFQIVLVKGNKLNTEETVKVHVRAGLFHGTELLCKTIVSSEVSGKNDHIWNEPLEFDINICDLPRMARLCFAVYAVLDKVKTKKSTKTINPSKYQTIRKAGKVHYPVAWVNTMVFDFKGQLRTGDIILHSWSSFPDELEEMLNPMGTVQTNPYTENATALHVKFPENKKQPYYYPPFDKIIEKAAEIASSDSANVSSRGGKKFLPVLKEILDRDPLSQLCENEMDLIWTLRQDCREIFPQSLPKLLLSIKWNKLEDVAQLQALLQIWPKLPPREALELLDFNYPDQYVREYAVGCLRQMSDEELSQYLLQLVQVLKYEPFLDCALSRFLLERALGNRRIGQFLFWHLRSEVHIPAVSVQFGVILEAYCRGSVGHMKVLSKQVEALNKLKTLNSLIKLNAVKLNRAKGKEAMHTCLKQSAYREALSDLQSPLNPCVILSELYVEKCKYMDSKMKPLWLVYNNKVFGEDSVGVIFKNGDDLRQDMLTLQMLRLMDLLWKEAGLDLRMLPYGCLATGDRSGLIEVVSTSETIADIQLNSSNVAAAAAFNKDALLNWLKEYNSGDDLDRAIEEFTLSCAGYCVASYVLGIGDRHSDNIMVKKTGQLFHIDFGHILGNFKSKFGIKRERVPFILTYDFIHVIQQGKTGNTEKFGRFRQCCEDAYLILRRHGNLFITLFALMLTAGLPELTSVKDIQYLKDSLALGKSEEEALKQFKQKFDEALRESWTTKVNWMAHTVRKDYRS

Tests used:
[1] = biological target: Phosphatidylinositol 4,5-bisphosphate 3-kinase catalytic subunit gamma isoform (Homo sapiens, UniProt P48736); assay: Inhibition of recombinant PI3Kgamma (unknown origin) using […] as substrate after 3 hrs incubation by competitive fluorescence polarization kinase activity assay
[2] = biological target: Phosphatidylinositol 4,5-bisphosphate 3-kinase catalytic subunit beta isoform (Homo sapiens, UniProt P42338); assay: Inhibition of recombinant PI3Kbeta (unknown origin) […] after 3 hrs incubation by competitive fluorescence polarization kinase activity assay

Q: What does the source list for `O=c1cc(N2CCOCC2)oc2c(-c3ccccc3)cccc12` [LY-294002]?
A: IC50 [1]: 947 nM; IC50 [2]: 983 nM
